Measured values: PubChem BioAssay AID2777 (Johns Hopkins Ion Channel Center, 2010)
This is a selection; strong and weak results do not stand in their true shares. Calls of active or inactive are those of the source.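 How the source made its calls: active means rise or fall in signal beyond 3 SD of buffer-only wells in both replicate plates, either sign; inactive means the rest.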

Test system: transient receptor potential cation channel C4 (TRPC4), mouse
Assay: mouse TRPC4 modulation by TRPC6 hits, confirmation, selectivity assay for TRPC6 inhibitor project, cell-based, HEK293 TRPC4/mu-opioid, membrane potential dye (AID 2777);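 further: integrated kinetic ratio of fluorescence range over baseline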
Details: membrane potential fluorescence, at 10 µM

Row | Structure (SMILES) | activity change, negative = inhibition
1 | CN1CCCC(OC(=O)C(c2ccccc2)c2ccccc2)C1 (stereo not drawn) | active: 2.23%
2 | CCC1=CC2Cc3nc4ccc(Cl)cc4c(N)c3C(C1)C2 (stereo not drawn) | active: -28.5%
3 | O=[N+]([O-])c1ccc(O)c(/C=N/Nc2ccc([N+](=O)[O-])cc2[N+](=O)[O-])c1 | active: -15.3%
